Results reported in ChEMBL document CHEMBL3232965, “The σ2 receptor: a novel protein for the imaging and treatment of cancer” (J Med Chem, 2013).
pKi: −log10 of the molar value.

Assay: Binding affinity to sigma-1 opioid receptor (unknown origin)

pKi: 5.51
SMILES: COc1cc2c(cc1OC)CN(CCCCNC(=O)c1cc(C)ccc1OC)CC2
